One substance from US10029000B2, “Uses of IL-12 in hematopoiesis” (University of Southern California, priority 2003, dated 2018) can be followed below.

For this experiment, the system named is lethally irradiated mice. As to the kind of experiment: Radioprotection assay: survival of mice after total body lethal irradiation. The experiment is classed as in vivo, mice (C57BL/6J). The conditions noted are these: cytokine given 1 hour post lethal dose radiation. How it is done:
A study was conducted to assess the ability of IL-112 administration to protect, or rescue, a mammal from lethal ionizing radiation and the results are presented in FIG. 1. Mice received recombinant murine IL-12 (100 ng/mouse (which is about 5 ug/kg on average), intravenous injection) before (24 hours) or after (1 hour) lethal dose radiation (1000 rad). Mice in control group received equal volume of PBS buffer. Survival rate were analyzed by Kaplan-Meier method and p value was calculated using Log Rank Test.
A study was conducted to assess a low dose IL-12 can effectively protect a mammal from lethal dose ionizing radiation. To determine the minimum effective radioprotective dose of IL-12, different dose of IL-112 were administered to lethally irradiated animals before (24 hours before) or post (within one hour) lethal dose ionizing radiation. The best survival rate was obtained at dose of 5 ug/kg, in both before and post radiation administration. […] The dose of 5 ug/Kg can be converted to approximately 400 ng/kg as the appropriate human dose, using the general rule where the human dose is 1/12 of the murine dose.
IL-12 was administrated to mice at different doses 24 hours before radiation to determine if there is a dose dependent relationship between the concentration of IL-12 administration and survival from lethal irradiation. […]

For the substance “IL-2: cytokine which can synergistically function with IL-12 in immune response”, the “Survival rate (%)” value is 0%. The Survives (4-5 mice per group) is listed as 0.
